Values of other authors in patent publication US10906890B2, “Triazole phenyl compounds as agonists of the APJ receptor” (AMGEN INC., priority 2016, dated 2021).

Amino acid sequences for entries named in this document (tags omitted). A change or cut given only in a name is not applied to a line headed by its entry.
UniProt P35414: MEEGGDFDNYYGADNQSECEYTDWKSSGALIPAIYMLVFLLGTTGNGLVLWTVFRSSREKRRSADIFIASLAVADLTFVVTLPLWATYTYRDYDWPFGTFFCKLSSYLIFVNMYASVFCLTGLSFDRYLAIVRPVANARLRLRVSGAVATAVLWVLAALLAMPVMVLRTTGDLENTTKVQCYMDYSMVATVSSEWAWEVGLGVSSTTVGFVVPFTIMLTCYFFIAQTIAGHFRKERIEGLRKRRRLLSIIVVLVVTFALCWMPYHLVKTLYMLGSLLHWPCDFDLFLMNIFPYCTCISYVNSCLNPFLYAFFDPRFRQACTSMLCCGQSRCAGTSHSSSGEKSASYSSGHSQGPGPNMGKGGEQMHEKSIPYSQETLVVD

Molecular target: APJ receptor (Homo sapiens (Human), UniProt P35414)
Settings: higher affinity than apelin-36; cited from earlier work

Substance: Apelin-13
- in vitro affinity to the APJ receptor relative to apelin-36: ~3.5 fold
